Experimental data reported in PMC4330362, “The ATP-mediated formation of the YgjD–YeaZ–YjeE complex is required for the biosynthesis of tRNA t^6A in Escherichia coli” (Nucleic Acids Research, 2015).

Tests used:
[1] = target: YgjD–YeaZ heterodimer (Escherichia coli K-12) (UniProt P05852)
[2] = target: YjeE (TsaE) (Escherichia coli K-12) (UniProt P0AF67); test: SEC + other: SAXS; HPLC gel filtration coupled to SAXS; in presence of 1.0 mM ATP and 2.0 mM MgCl2; YgjD–YeaZ and YjeE mixed 1:4
[3] = target: YjeE (TsaE) (Escherichia coli K-12) (UniProt P0AF67); test: SEC; gel filtration of YjeE at various time lapses after purification
[4] = target: YgjD–YeaZ heterodimer (Escherichia coli K-12) (UniProt P05852); remark: listed apart in the source

Row | Substance | kcat of ATP hydrolysis by YgjD–YeaZ–2xYjeE (NADH-coupled ATPase assay, 20°C) [1] | stoichiometry N [2] | percent monomer 18 h after purification [3] | stoichiometry N [3] | drop of the in vitro biosynthesis of t^6A (HPLC/MS of digested tRNA) [4]
1 | YjeE (TsaE) (from UniProt P0AF67 1-153) (enzyme) | 0.4 s⁻¹ | 2 | < 20% | 2 | 
2 | YjeE^E108A (from UniProt P0AF67 1-153) (enzyme) |  |  |  |  | 60%
